The record followed here is PubChem BioAssay AID1208 (EPA DSSTox, 2008).

Some tests of the compounds listed are not included; inactive here does not mean inactive elsewhere. The source made the active and inactive calls.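 How the source made its calls: active means at least one rat sex group has a carcinogenic potency value and tumor site recorded; inconclusive means only rat studies were judged inadequate by the national testing program; inactive means no potency or tumor site, with negative rat experiments.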

In the data set the test system is rat chronic carcinogenicity bioassay, TD50. The data set can be described thus: DSSTox (CPDBAS) Carcinogenic Potency Database Summary Rat Bioassay Results. The note with it: TD50_Rat_Note: no positive results; TargetSites_Rat_Female: no positive results. The text has this:
The Carcinogenic Potency Database (CPDB) is a unique and widely used international resource of the results of over 6500 chronic, long-term animal cancer tests on over 1500 chemical substances. The CPDB provides easy access to the bioassay literature, with qualitative and quantitative analyses of both positive and negative experiments that have been published over the past 50 years in the general literature and by the National Cancer Institute/National Toxicology Program. The CPDB standardizes the diverse literature of cancer bioassays that vary widely in protocol, histopathological examination and nomenclature, and in the published author's choices of what information to provide in their papers. Results are reported in the CPDB for tests in rats, mice, hamsters, dogs, and nonhuman primates, and are based on the most positive result among all experiments for each sex-species. The DSSTox CPDBAS (all species) file incorporates data from the CPDB Summary Tables for the full list of over 1500 chemical substances tested in at least one species. Summary bioassay results for Rat (TD50, tumor sites, male, female, both sexes) are provided in the CPDB Summary Tables and the DSSTox CPDBAS file for over 1200 chemical substances.
TD50 is a standardized quantitative measure of carcinogenic potency (analogous to an LD50) and is reported in the CPDB Summary Table for each species. […]

Take `N#CC(C#N)=Cc1ccccc1Cl`: the outcome was “inactive; no positive results”.
